The subject of the assay is ovariectomized ddY mice. The assay is described as follows: Prophylactic effects in ovariectomized ddY mouse model (estrogen-deficient osteoporosis). Type of assay: in vivo. To be noted: right tibia; 10 mg/kg oral once a day for 6 weeks (F10, D10). The source says:
The effects of a drug would be based on histomorphometric changes of trabecular bone and thickness cortical bone in this model.
The objective of present study is to observe the prophylactic effect of DW1350MSA, and administration of drug was initiated 3 days after ovariectomy for prophylaxis study. The results were compared to that of Fosamax, well-documented anti-osteoporotic agents.
Twenty-five female ddY mice (6-wk old upon receipt, SLC, Japan) were used after acclimatization for 7 days. Animals were allocated 5 per polycarbonate cage in a temperature (20-25° C.) and humidity (30-35%) controlled room. Light:dark cycle was 12 hr:12 hr and feed (Samyang, Korea) and water were supplied free to access. […]
Histomorphometric changes of tibia and femur were evaluated. All histomorphometric indices including trabecular bone volume (TBV, %), thickness of trabecular bone (Tbt), trabecular bone number (Tbn), and length of trabeculer bone (Tbl) were calculated using automated image analysis (analysis Image Processing; SIS, Germany) under magnification 200 (×200) of microscopy (Zeiss, Germany) in the epiphyseal regions of right tibia and/or femur. In addition, cortical bone thickness (Cbt) was measured in mid-shaft region of right tibia and femur. […] Tbt and Tbl were calculated as um levels, and Tbn were calculated as number/whole sectional part of epiphyseal regions levels. • C. […]

In the case of `NCCCC(O)(P(=O)(O)O)P(=O)(O)O` [Fosamax, Alendronate], the “Ocn, osteoclast cell number” value is 9.40 ± 2.30 number.
